Experiments:
primary rat hepatocytes = test: Hepatotoxicity in primary rat hepatocytes (MTT cell viability, LDH release); conditions: 10 μM (higher concentration, therefore not used)
diabetic rats = conditions: DM-AH: diabetic rats, 40 mg/kg; on day 8

Row | Compound | cytotoxicity in primary hepatocytes (primary rat hepatocytes) | mortality (diabetic rats)
1 | CC(=O)N1CCN(c2ccc(OCC3COC(Cn4ccnc4)(c4ccc(Cl)cc4Cl)O3)cc2)CC1 (centres unmarked) [ketoconazole, Ketoconazole] | cytotoxicity | 
2 | CC(C)c1c(C(=O)Nc2ccccc2)c(-c2ccccc2)c(-c2ccc(F)cc2)n1CC[C@@H](O)C[C@@H](O)CC(=O)O [atorvastatin, Atorvastatin calcium] |  | all died

— paper PMC5021965 (Scientific Reports, 2016)
